Reference: patent publication US12582669B2, “Composition controlling pharmacokinetics in the body” (KAWASAKI INSTITUTE OF INDUSTRIAL PROMOTION, priority 2018, dated 2026)
Where two headings read alike, the source gives them in different places.

Assays:
[1] = mouse, in vivo
[2] = mouse, in vivo; remark: listed apart in the source

branched poly(ethylene glycol)-b-poly(L-lysine) [PEGasus-PLL]
amount of mRNA accumulated in the heart [1]: significantly increased | improvement of the amount of mRNA delivered to the brain versus micelles alone [1]: ≥ 5 times | amount of mRNA accumulated in the kidneys ([1]; ip): about 5% | amount of mRNA accumulated in the liver ([1]; ip): ~10% | amount of mRNA accumulated in the heart [2]: significantly increased | amount of mRNA accumulated in the lungs [2]: significantly increased | amount of mRNA accumulated in the spleen [2]: significantly increased | amount of mRNA accumulated in the kidneys ([2]; iv): ≤ 4%
